The assay addresses Nxf1-EYFP (UniProt Q9UBU9). Put plainly: FRET or BRET; sensitized emission FRET (normalized FRET, NFRET) in live HeLa cells; ECFP fusion donor, EYFP fusion acceptor; mean over the whole nucleus; NFRET >5% taken as a significant interaction; cells also imaged after 2 h 10 ug/ml actinomycin D.

For “Alyref-ECFP (from UniProt Q86V81 1-257) (natural protein; other documents disagree on this pair)”, the NFRET came to 8.14.
